Literature values in US20170044471A1, “Sulfate-Free Liquid Laundry Detergent” (The Sun Products Corporation, priority 2015, published 2017).

System: Zein
Details: cited from earlier work

Sodium Lauryl Sulfoacetate & Disodium Laureth Sulfosuccinate [STEPAN-MILD LSB]
Normalized Zein Score of Surfactant: 25%
